# Earlier results in patent US20210329915A1, “ABSORPTION PROMOTER, FLYING-INSECT PEST REPELLENT FRAGRANCE-CONTAINING COMPOSITION, AND FLYING-INSECT PEST REPELLENT PRODUCT” (DAINIHON JOCHUGIKU Co., Ltd., priority 2018, published 2021).
substance,measurement,value
hexylene glycol,Vapor pressure at 20° C.,6.7 Pa
